## scFv variants of Ab-95 (light chain) against a SARS-CoV-2 spike peptide

The target is the same throughout: PDVDLGDISGINAS, from the HR2 region of SARS-CoV-2 spike.

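The starting antibody came from a phage panning campaign against this peptide. The library (AAYL52) carries one to three amino acid substitutions per variant, with no insertions or deletions. In AlphaSeq, yeast of one mating type display the scFv and yeast of the other type display the target. Mating (16 h, 30 °C) was followed by selection of diploids and sequencing of their barcodes. The ratio of observed to expected reads was calibrated, replicate by replicate, on BCL2-family standards whose Kd was known from biolayer interferometry. There are three technical replicates.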

The variants keep the heavy chain, the linker and the frameworks of Ab-95 (scFv order VH, the linker GGGGSGGGGSGGGGS, VL).
VH: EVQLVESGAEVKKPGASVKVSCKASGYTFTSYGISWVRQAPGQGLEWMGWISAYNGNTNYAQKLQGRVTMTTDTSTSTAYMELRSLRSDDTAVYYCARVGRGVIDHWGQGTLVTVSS
VL: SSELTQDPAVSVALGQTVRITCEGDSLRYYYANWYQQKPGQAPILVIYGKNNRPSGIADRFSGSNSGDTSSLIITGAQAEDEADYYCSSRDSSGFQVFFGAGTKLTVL

Each variant is given by its three light chain CDRs, as the data file delimits them; those of the parent are EGDSLRYYYAN, GKNNRPS, SSRDSSGFQVF.
This list gathers variants with a substitution at E23 (VL, numbered from residue 1).
The Kd shown is the geometric mean over detected replicates; a lower Kd is a better binder.
"no signal" means that the variant was in the library but no mating with the target was seen in any replicate; the authors take this as a sign of poor binding, and no number exists.
Entries are sorted by rising average, undetected variants last.
For reference, the parent read 200 nM as the reference entry and 180 nM as a member of this library.
Nonspecific signal, from three strains lacking the peptide, appeared in 28% of pairings of library AAYL52, centred on 8.2 µM (5% of these signals below 800 nM); values are not corrected for it. For each scFv, signals with the empty controls are counted beside the result.

The variant KGDSLRYMYAN | GKNNRPS | SSRDSSGFQVF showed 9.5 nM (3 of 3 replicates; controls 1 of 9).
The variant FGDSLTYYNAN | GKNNRPS | SSRDSSGFQVF showed 28 nM (3 of 3 replicates; controls 1 of 9).
The variant CGWSLRYGYAN | GKNNRPS | SSRDSSGFQVF showed 30 nM (3 of 3 replicates; controls 3 of 9).
The variant SGDSLRYYYAN | GKNNRPS | SSRDSSGFQVF showed 34 nM (3 of 3 replicates; controls 5 of 9).
The variant NGDSLRYYYAN | GKNNRPS | SSRDSSGFLIF showed 39 nM (3 of 3 replicates; controls 2 of 9).
The variant NGDSLRYYYAN | GENNRPS | SSRDSSGFQVY showed 54 nM (3 of 3 replicates; controls 5 of 9).
The variant RGDNLRYYYAN | GKNNRPS | SSRDSCGFQVF showed 97 nM (3 of 3 replicates; controls 2 of 9).
The variant MGDSLRYYYAN | GKNNRPS | SSRDSSGFQVF showed 150 nM (3 of 3 replicates; controls 3 of 9).
The variant HGDSLRYYYAN | GKNNRNS | SSRDSSGNQVF showed 260 nM (3 of 3 replicates; controls 0 of 9).
The variant LGDSLRYYYAN | GKNNRPS | ESRDSSGFQVF showed 260 nM (3 of 3 replicates; controls 6 of 9).
The variant KGDSLRYYYYN | GKNNRPS | SSRDSSGFQVF showed 290 nM (3 of 3 replicates; controls 1 of 9).
The variant TGDSLRYYYAN | GKNNRPS | SSRDSSTFVVF showed 320 nM (3 of 3 replicates; controls 7 of 9).
The variant YGVSLRYYYAN | GKNNRPS | SSRDPSGFQVF showed 550 nM (3 of 3 replicates; controls 2 of 9).
The variant KVDSLRHYYAN | GKNNRPS | SSRDSSGFQVF showed 560 nM (3 of 3 replicates; controls 2 of 9).
The variant YGDSLRYYYAN | GKANRPS | SSRDSSGFQVF showed 630 nM (3 of 3 replicates; controls 4 of 9).
The variant SGDTLRYYYAN | GKNNRPS | SSRDSSGFQVS showed 1.3 µM (3 of 3 replicates; controls 3 of 9).
The variant CGDSLRYTYAN | GKNNRPS | SSNDSSGFQVF showed 1.3 µM (2 of 3 replicates; controls 1 of 9).
The variant GGDSLRYYYAN | GKANRPS | SSCDSSGFQVF showed 1.4 µM (2 of 3 replicates; controls 3 of 9).
The variant RGDSLRYYYAN | GKKNRPS | SSLDSSGFQVF showed 1.6 µM (1 of 3 replicates; controls 3 of 9).
The variant MGDSLRYYYAN | NKNNRPS | SSRDSNGFQVF showed 2.2 µM (3 of 3 replicates; controls 2 of 9).
The variant FGDSLIYYYAN | GKNNRPS | SQRDSSGFQVF showed 3.4 µM (2 of 3 replicates; controls 3 of 9).
The variant HGDSLRYYYIN | GKNNRPS | SSCDSSGFQVF showed 3.6 µM (2 of 3 replicates; controls 4 of 9).
The variant FGDSLRYYYAN | GRNNTPS | SSRDSSGFQVF showed 4.0 µM (3 of 3 replicates; controls 3 of 9).
The variant HGDSLRYYYAN | GKNNRPS | SSRDSVVFQVF showed 4.2 µM (1 of 3 replicates; controls 6 of 9).
The variant GGKSLRYYYAI | GKNNRPS | SSRDSSGFQVF showed 8.6 µM (1 of 3 replicates; controls 3 of 9).
The variant NGDSLRYYYAN | GKNHRPS | SSYDSSGFQVF showed 9.8 µM (2 of 3 replicates; controls 2 of 9).
The variant VGDSLRYYYAN | GKNNCPS | SSRDRSGFQVF showed 14 µM (3 of 3 replicates; controls 2 of 9).
The variant WGDSLRYYYAN | GKNRRPS | SDRDSSGFQVF showed 15 µM (1 of 3 replicates; controls 2 of 9).
The variant WGDSLRYYYAN | GKNNMPS | SSRVSSGFQVF showed 26 µM (1 of 3 replicates; controls 2 of 9).
The variant IGDSLRYYYAN | GKVNRPS | SSRDSSGFQVF showed 26 µM (2 of 3 replicates; controls 3 of 9).
The variant FGDSTRYYYEN | GKNNRPS | SSRDSSGFQVF showed 32 µM (2 of 3 replicates; controls 6 of 9).
The variant TGDSLCYYYAN | GKCNRPS | SSRDSSGFQVF showed 34 µM (2 of 3 replicates; controls 3 of 9).
The variant LGDSLRYYYAN | GRFNRPS | SSRDSSGFQVF showed 38 µM (1 of 3 replicates; controls 4 of 9).
The variant QGDSLRYYYAN | GKNNRPS | RSEDSSGFQVF showed 92 µM (2 of 3 replicates; controls 4 of 9).
The variant LGDSRRYYYAN | GKNKRPS | SSRDSSGFQVF showed 130 µM (3 of 3 replicates; controls 3 of 9).
The variant GGDSARYYYAR | GKNNRPS | SSRDSSGFQVF showed 170 µM (1 of 3 replicates; controls 2 of 9).
The variant FYDSLRYYYAN | GKNNRPS | SSRDSSGFQCF showed no signal (0 of 3 replicates; controls 3 of 9).
The variant IGDSPRYYYAN | GFNNRPS | SSRDSSGFQVF showed no signal (0 of 3 replicates; controls 1 of 9).
The variant NGDELRYYYMN | GKNNRPS | SSRDSSGFQVF showed no signal (0 of 3 replicates; controls 1 of 9).
The variant FGDSQRYYYAN | DKNNRPS | SSRDSSGFQVF showed no signal (0 of 3 replicates; controls 2 of 9).
The variant LGDSLRYYYAW | GKNNRPS | SSYDSSGFQVF showed no signal (0 of 3 replicates; controls 2 of 9).
The variant HGDSLRYYYAN | GKNNRPS | LSRDSSFFQVF showed no signal (0 of 3 replicates; controls 0 of 9).
The variant VGDSLRGYYAN | PKNNRPS | SSRDSSGFQVF showed no signal (0 of 3 replicates; controls 6 of 9).
The variant VGDSLRYYYAN | KKNNRPS | SSRDSIGFQVF showed no signal (0 of 3 replicates; controls 2 of 9).

The closing 5 entries, repeated:

Variant FGDSQRYYYAN | DKNNRPS | SSRDSSGFQVF gave no signal (0 of 3 replicates; controls 2 of 9).
Variant LGDSLRYYYAW | GKNNRPS | SSYDSSGFQVF gave no signal (0 of 3 replicates; controls 2 of 9).
Variant HGDSLRYYYAN | GKNNRPS | LSRDSSFFQVF gave no signal (0 of 3 replicates; controls 0 of 9).
Variant VGDSLRGYYAN | PKNNRPS | SSRDSSGFQVF gave no signal (0 of 3 replicates; controls 6 of 9).
Variant VGDSLRYYYAN | KKNNRPS | SSRDSIGFQVF gave no signal (0 of 3 replicates; controls 2 of 9).

The measurements come from Engelhart et al. 2022 (doi:10.1038/s41597-022-01779-4) through the FLAb antibody collection.